The text below walks through data of article PMC8078842 (PLoS Neglected Tropical Diseases, 2021).

In the series the test system is MDR1-MDCK cells. Particulars: 10 µM.

Like-named read-outs stand apart in the source and are kept apart here.

For the compound `CC(C)NCC(O)COc1cccc2ccccc12` (stereo not shown) [propranolol], under “UPLC-MS/MS”, the “Mass balance A2B” value is 81.5% and the “Mass balance B2A” value was 84.4%.
For `N=C(N)c1ccc(OCCCCCOc2ccc(C(=N)N)cc2)cc1` [Pentamidine, 1,5-bis-4ρ-amidinophenoxypentane], where the note is “dog, MDCK-MDR1, 1 h, pH 7.4”, the “Mass balance A2B” value is reported as 74.5% and the “Mass balance B2A” value amounted to 72.7%.
